## Measured affinities in a library of Ab-95 light chain variants

The target is the same throughout: PDVDLGDISGINAS, from the HR2 region of SARS-CoV-2 spike.

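Variants in AAYL52 differ from the parent at up to three CDR positions; double and triple changes were sampled at random. Affinity was read by AlphaSeq, a pooled yeast mating assay with surface-displayed partners. Mating (16 h, 30 °C) was followed by selection of diploids and sequencing of their barcodes. Read counts were normalised to the haploid input and turned into Kd by a linear fit to BCL2-family pairs of known affinity, for each replicate. Each pool was mated in three replicate cultures.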

Parent scFv Ab-95: VH joined to VL by a 15-residue (Gly4Ser)3 linker. Changes lie in the light chain CDRs alone.
VH: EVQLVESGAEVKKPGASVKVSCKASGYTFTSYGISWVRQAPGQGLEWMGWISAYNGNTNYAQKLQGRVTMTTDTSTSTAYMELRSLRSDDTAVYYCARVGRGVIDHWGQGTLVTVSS
VL: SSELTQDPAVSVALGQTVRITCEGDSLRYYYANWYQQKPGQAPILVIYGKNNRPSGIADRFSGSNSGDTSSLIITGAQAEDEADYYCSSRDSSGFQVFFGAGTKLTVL

Positions count from residue 1 of the parent VL; K50D puts D in place of K. Values are log10 of the apparent Kd in nM; lower means stronger binding. A mean of the replicates is given; it leaves out those without a signal. An entry "nd" has no value in the source: the pair was not observed among the diploids in any replicate. This suggests poor binding but is not conclusive.

changes	mean, log10 nM	seen in
K50D/P54K/S93L	3.04	2 of 3
L27M/K50P/R53L	4.68	1 of 3
R28Q/S55N/S88D	2.53	3 of 3
E23V/Y29G/K50R	1.51	3 of 3
L27D/A32S/S93T	2.34	3 of 3
R28S/S88E	4.07	3 of 3
N51E/R53I	3.26	3 of 3
D25E/K50Y/V97F	2.92	1 of 3
L27H/S55N/S88W	nd	0 of 3
A32M/K50I/F95Q	3.79	3 of 3
R28V/N33C/P54N	3.43	2 of 3
G49E/S93F/F95E	3.46	2 of 3
L27R/S93R	3.96	2 of 3
D25M/Y30Q/R53M	1.80	3 of 3
D25V/P54I/S93L	3.88	2 of 3
N52L/S92V/F95S	2.28	3 of 3
D25W/N33L/S92P	4.09	1 of 3
L27F/R90G/S93D	4.42	1 of 3
R28G/F95R/F98L	2.45	3 of 3
A32Q/R90E/G94D	4.46	2 of 3
G24R/G94I/F95L	4.25	3 of 3
L27V/N51E/S92H	3.44	3 of 3
G24C/R53V/Q96I	3.91	1 of 3
D25C/R53M/S55N	4.22	2 of 3
S93Q/G94C/Q96Y	4.54	2 of 3
S88F/S89M/S93M	2.78	3 of 3
R28K/S55H/G94S	3.63	3 of 3
D25R/Y31I/N33Y	4.69	1 of 3
A32V/K50H/S88L	nd	0 of 3
E23T/G24V/L27M	3.71	2 of 3
A32M/S55P	3.47	3 of 3
G24P/R28F/Y30W	2.80	3 of 3
Y29E/Y31A	1.01	3 of 3
A32P/D91C/S92D	4.29	2 of 3
S26K/Y31M/S89A	3.24	3 of 3
G24A/R90H/S93E	3.26	3 of 3
R53G/S88F/V97P	4.08	1 of 3
Y31F/K50G/V97T	1.93	3 of 3
Y31L/A32V/V97I	nd	0 of 3
R53G/S55T/S89C	3.61	2 of 3
S26H/R90Y/F98N	2.51	2 of 3
Y30P/K50R/D91N	3.14	3 of 3
P54D/F95E/F98M	1.99	3 of 3
Y29N/S93H/Q96G	1.81	3 of 3
G24F/L27R/V97S	3.20	1 of 3
G49Y/N51G/R90S	4.03	1 of 3
N52L/S55D/S92W	2.14	3 of 3
N51M/S55K/S92A	3.08	3 of 3
Y30C/G49E	3.57	3 of 3
N33L/N51V/S88T	4.22	1 of 3
S88N/D91Q/V97Y	3.76	1 of 3
N52C/S92A	2.70	3 of 3
S89P/Q96A/F98Q	3.13	1 of 3
Y30H/G49I/N52Q	nd	0 of 3
G24H/S26I/K50C	nd	0 of 3
Y31G/R53G/S92L	4.41	3 of 3
L27R/A32G/G49I	5.75	1 of 3
Y30H/N33I/P54N	3.98	3 of 3
E23F/R53T/S88D	4.07	3 of 3
D25V/K50W/S88N	4.44	1 of 3
N33M/N52T/D91G	5.18	2 of 3
Y31E/S88M/S92K	0.55	3 of 3
P54K/S55A/F98S	3.43	2 of 3
E23C/Y31Q/Q96V	2.24	3 of 3
A32E/R90D/D91Y	nd	0 of 3
S26C/R28K/G94H	3.52	2 of 3

5 of these entries, quoted again:

| changes | mean, log10 nM | seen in |
|---|---|---|
| G49E/S93F/F95E | 3.46 | 2 of 3 |
| G24F/L27R/V97S | 3.20 | 1 of 3 |
| D25M/Y30Q/R53M | 1.80 | 3 of 3 |
| Y30H/G49I/N52Q | nd | 0 of 3 |
| S88N/D91Q/V97Y | 3.76 | 1 of 3 |

Three control strains display no target. For library AAYL52, 28% of the pairings with them gave a signal, with a median of 3.91 and one signal in twenty below 2.90, so weak values seen in few replicates may be background.

Values reported by Engelhart et al. 2022, doi:10.1038/s41597-022-01779-4 (FLAb copy).